Results reported in publication PMC6615598, “Novel antibiotics effective against gram-positive and -negative multi-resistant bacteria with limited resistance” (PLoS Biology, 2019).

Key:
zebrafish embryos [1] = test: Zebrafish embryo quantitative toxicity (size, curvature, cardiac frequency)
Experimental: Adult fish were kept in 30l aquariums at 27°C ± 2°C under constant light/dark (14:10 h) cycles. The day before the embryos were used, males and females were placed in breeding tanks. The fish were left undisturbed overnight, and the eggs were collected 1 h after the light was turned on the next morning. When the injections of the cyclic peptides started, embryos were transferred into microtiter plates placed at 28°C for 24 h. Peptides were prepared at 1, 10, 20, 40, and 100 mM concentrations in water, and injections were performed into the caudal vein. Each peptide was injected at 1 nl for all concentrations except 100 mM, when 2 nl was injected. Control embryos were injected with 1 nl of water. When the peptides were injected, analysis determined embryo sizes, curvatures, and cardiac frequencies. Peptide concentrations were checked in 10 embryos, and these were divided among 96-well plates and analyzed under a microscope or using a magnifying glass. Analysis was done for 9 qualitative endpoints in order to determine mortality rates and the frequencies of toxic effects, which include cardiac bleeding, blood flow defects, cerebellar bleeding, necrosis, pericardia edema, otic vesicle, and motility and brain defects. […] To do this, each peptide was prepared in 0.9% NaCl and injected into the tail veins of 3 male Swiss mice at 1.5, 2.0, 2.5, or 5.0 mg.kg^−1, corresponding, respectively, to calculated blood concentrations of approximately 18.5, 24.5, 31, and 62.0 μM. Each animal was checked for mortality twice per day. Clinical signs were recorded daily, including any reduced motor activity, piloerection, and redness in the ear lobe, cyanosis, protruding eyeballs, slow or labored breathing, loss of response in the rear legs, convulsions, or death. Body weight was recorded at least once before the beginning of the treatment period and again on the day of treatment, with the satellite group checked once during the observation period. For the groups of mice observed for 7 d, food consumption was measured once during the study. All the animals were euthanized on the day after treatment, except for 4 satellite animal groups that were euthanized after a 7 d observation period. All then underwent complete macroscopic and microscopic post-mortem examinations. Hematology investigations were performed before necropsy for all animals except the satellite ones, whose blood biochemistry parameters were determined before euthanasia. For all injected doses, measurements were done 2 d before necropsy of various hematology parameters. These included white blood cells counts, erythrocytes counts, hemoglobin concentration, hematocrit, mean corpuscular volume, mean corpuscular hemoglobin, mean cell volume, packed cell volume, mean cell hemoglobin concentration, mean cell hemoglobin, thrombocytes, leucocytes, reticulocytes, neutrophils, eosinophils, basophils, lymphocytes, large unstained cells, monocytes, prothrombin time, fibrinogen, activated partial thromboplastin time, potassium, and creatinine. After euthanasia, selected organs were weighed, and selected tissue was preserved for microscopic examination. The human erythrocyte toxicity assays were performed as described by Solecki and colleagues. Human blood was collected from the Rennes Etablissement Français du Sang. Red blood cells (RBCs) were centrifuged at room temperature to 1,400 rpm for 10 min. Supernatant was discarded and RBCs recovered into 1X PBS buffer. RBCs were centrifuged again, and the pellets resuspended in 1X PBS. RBCs were washed until the supernatant was clear. Of that suspension, 75 μl was mixed with 75 μl of 2-fold serial dilutions of purified peptide in a microtiter plate, from 0.5 to 512 μM in 1X PBS. The plates were incubated for 2 h at 37°C. […] A solution of water 1% Triton X-100 was a positive control with all RBCs lysed, and the hemoglobin release was set at 100%.

[2] = Stability in human serum (half-life); format: in vitro ADME; settings: 25% human serum, pre-incubated 15 min at 37°C, peptide 10^−4 M, RP-HPLC peak areas, mean of biological triplicates
Experimental: (§1) (10−4 M final concentrations). At selected time intervals, 100 μl of reaction mixture was collected, quenched by 200 μl 95% EtOH, and adjusted at pH 2 to prevent peptide adsorption to serum proteins. […] Supernatants were analyzed by RP-HPLC on an Xbridge C18 column with a linear gradient of water, 0.08% TFA, and acetonitrile with 1% TFA. HPLC peak areas were used to calculate the percentages of intact compound remaining at the various time points. MIC and MBC values were determined in triplicate in many ESKAPE clinical isolates, including a dozen MDR S. aureus, by the broth microdilution method. Peptidomimetics and antibiotics were assayed in a concentration range of 1 to 128 μM. The bacterial inoculum (5 × 10^5 colony-forming units [CFUs]/well) was prepared in MHB or CAMHB (150 μl). A Biotek Synergy 2 spectrophotometer was used to record the results after 18–20 h incubation at 35°C (±2°C). […] After every hour of culture for 4 h, serial dilutions were plated on BHI plates and incubated overnight at 37°C, and then the CFUs were counted and expressed as log CFU/ml. Phosphate-buffered saline (PBS)-exposed S. aureus MRSA was included as a control.
(§2) Supplementary file pbio.3000337.s013.docx: S7 Table Peptide half-lives in human and mouse sera. […] Peptide amounts and half-lives were determined by HPLC. Experiments were conducted on 25% human or mouse sera. Values are shown in minutes. […]

[3] = Stability in mouse serum (half-life); format: in vitro ADME; settings: 25% mouse serum, pre-incubated 15 min at 37°C, peptide 10^−4 M, RP-HPLC peak areas, mean of biological triplicates
Experimental: as §1, §2

zebrafish embryos [4] = test: Zebrafish embryo qualitative toxicity (mortality, toxic defects); format: in vivo; settings: injection of 1 or 10 mM; 9 qualitative endpoints
Experimental: Control embryos were injected with 1 nl of water. […] Each animal was checked for mortality twice per day. […] RBCs were washed until the supernatant was clear. […] RBCs in PBS were a negative control without hemolysis.
Supplementary file pbio.3000337.s009.docx: S3 Table Qualitative toxicity assays of the 4 peptides on zebrafish embryos. Within a concentration range of 1 to 100 mM, 9 endpoints were analyzed to determine mortality rates and the frequency of various toxic effects (cardiac hemorrhage, blood flow defects, cerebellar hemorrhage, necrosis, pericardia edema, otic vesicle defects, motility defects, and brain defects). No toxicity was observed after injection of each of the 4 peptides and pseudopeptides at 1 or 10 mM concentrations, nor for those injected with Nisin or just water. However, 100% mortality was observed after injection of 100 mM of any of the peptides or pseudopeptides. CP, cumulative percentage of toxic defects; F, frequency; N, number of treated embryos; P, percentage. (DOCX) Click here for additional data file.

[5] = 1 nl of 10 mM injected into caudal vein

| Compound | Embryo curvature, Mean (zebrafish embryos [1]; 1 nl of 1 mM injected) | Embryo curvature, Mean (zebrafish embryos [1]; 1 nl of 10 mM injected) | Embryo size, Mean (zebrafish embryos [1]; [5]) | Embryo curvature, Mean (zebrafish embryos [1]; 1 nl of 20 mM injected) | Half-life in human serum [2] | Half-life in mouse serum [3] | Cardiac frequency, Mean (zebrafish embryos [1]; 1 nl of 1 mM injected) | Embryo size, Mean (zebrafish embryos [1]; 1 nl of 1 mM injected into caudal vein) | Cardiac frequency, Mean (zebrafish embryos [1]; 1 nl of 10 mM injected) | Cardiac frequency, Mean (zebrafish embryos [1]; 1 nl of 20 mM injected) | Embryo size, Mean (zebrafish embryos [1]; 1 nl of 20 mM injected into caudal vein) | Cardiac frequency, Mean (zebrafish embryos [1]; 1 nl of 40 mM injected) | Embryo curvature, Mean (zebrafish embryos [1]; 1 nl of 40 mM injected) | Embryo size, Mean (zebrafish embryos [1]; 1 nl of 40 mM injected into caudal vein) | Toxicity in zebrafish embryos (zebrafish embryos [4]) |
| --- | --- | --- | --- | --- | --- | --- | --- | --- | --- | --- | --- | --- | --- | --- | --- |
| CC(C)[C@@H]1NC(=O)[C@H](CCCNC(=N)N)NC(=O)[C@H](CCCNC(=N)N)NC(=O)[C@H](Cc2c[nH]c3ccccc23)NC(=O)[C@H](Cc2ccccc2)NC(=O)[C@H](Cc2ccccc2)NC(=O)[C@H](CCCCN)NC1=O [Pep18] | 179 ° | 179 ° | 2154 | 179 ° | – | – | – | – | – | – | – | – | – | – | – |
| nisin | 179 ° | 179 ° | 2102 | 179 ° | 22 ± 5 min | 7 ± 2 min | 29 heart beat/10 sec | 2154 | 30 heart beat/10 sec | 30 heart beat/10 sec | 2099 | 30 heart beat/10 sec | 179 ° | 2201 | No toxicity |
